Literature values as cited in patent US20120122787A1, “METHODS FOR TREATING POLYCYSTIC KIDNEY DISEASE (PKD) OR OTHER CYST FORMING DISEASES” (priority 2009, published 2012).

Tested on: wild-type rats
Details: rat, in vivo; cited from earlier work

Substance: 1-deamino-8-D-arginine vasopressin [dDAVP]
- renal effect in wild-type rats: renal hypertrophy
